# scFv variants of Ab-14 (heavy chain) against a SARS-CoV-2 spike peptide

From the AlphaSeq antibody data of Li et al. 2023 (doi:10.1038/s41467-023-39022-2), copy in the FLAb collection.

Target: peptide PDVDLGDISGINAS, taken from heptad repeat 2 (HR2) of SARS-CoV-2 spike.

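These sequences belong to a second round, designed from the earlier measurements on random variants of the parent. Their group label is 14H_En_Gen (En: ensemble of fine-tuned language models; Gen: genetic algorithm). The scFvs were displayed on barcoded MATa yeast, the peptide on MATalpha yeast. Mating (16 h, 30 °C) was followed by selection of diploids and sequencing of their barcodes. Each replicate has its own calibration line, from reference interactions of the BCL2 family. There are six technical replicates.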

Parent: Ab-14, a human scFv built as VH, a (GGGGS)3 linker, VL. Only the CDRs of the heavy chain vary.
VH: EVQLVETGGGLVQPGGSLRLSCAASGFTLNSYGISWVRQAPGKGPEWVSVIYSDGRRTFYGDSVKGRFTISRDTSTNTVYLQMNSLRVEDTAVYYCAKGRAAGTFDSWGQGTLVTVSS
VL: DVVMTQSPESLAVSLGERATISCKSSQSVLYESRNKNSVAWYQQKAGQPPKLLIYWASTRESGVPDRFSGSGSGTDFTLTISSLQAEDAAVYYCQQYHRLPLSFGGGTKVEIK

Variants are written as CDR1, CDR2 and CDR3 of the heavy chain (limits as in the source). Parent: GFTLNSYGIS, VIYSDGRRTFYGDSVK, GRAAGTFDS.
Numbers give log10(Kd / nM), so 0 is 1 nM and 3 is 1 µM. Smaller is tighter.
An entry "ND" has no value in the source: the pair was not observed among the diploids in that replicate. This suggests poor binding but is not conclusive.
Background: pairings of all heavy chain designs with three empty control strains gave a value in 1% of cases (median 2.08, 5th percentile 0.84). Values in that range, when seen in few replicates, are hard to tell from nonspecific mating. The control count says in how many pairings with the empty strains this scFv gave a signal, with their mean in brackets.
The authors' rule: three or more of the six replicates give a measured affinity, fewer mean a poor binder.
Of ten entries with the parent sequence, four were seen in most replicates (averages 0.34 to 2.37), three in one and three in none, so single entries are noisy.
A sequence measured in both rounds can read differently, since the two assays cover different ranges.

| # | CDR-H1 | CDR-H2 | CDR-H3 | replicates, log10 nM | control signals |
|---|---|---|---|---|---|
| 1 | GFDLNEYGIS | VIYADGMRTFYADSVK | GETAGTFDT | -0.23 / -0.80 / -0.58 / -0.97 / -0.94 / -0.64 | 0/18 |
| 2 | GFDLNEYGIS | VIYADGVRQAYADSVK | GNVAGTFDV | -0.28 / -0.37 / -0.27 / -0.72 / -0.56 / -0.20 | 0/18 |
| 3 | GFDLEDYGIS | VIYADGMRTAYTDSVK | GNQAGTFDV | -0.17 / -0.18 / -0.39 / -0.34 / -0.22 / -0.08 | 0/18 |
| 4 | GFDLNEYGIS | VIYADGMRTAYSDSVK | GNHAGTFDV | 0.23 / 0.00 / -0.08 / 0.03 / 0.28 / -0.09 | 0/18 |
| 5 | GFDLDEYGIS | VIYADGKRTAYADSVK | GQVAGTFDL | -0.08 / 0.08 / 0.01 / 0.20 / -0.11 / 0.22 | 0/18 |
| 6 | GFDLNEYGIS | VIYADGQRTAYTDSVK | GEVAGTFDL | ND / -0.81 / -1.59 / -1.91 / -1.14 / -1.26 | 0/18 |
| 7 | GFDLNEYGIS | VIYADGQRTAYADSVK | GEVAGTFDT | -0.01 / -0.11 / -0.91 / -0.94 / -0.48 / -0.45 | 0/18 |
| 8 | GFDLNEYGIS | VIYADGMRTAYADSVK | GGEAGTFDV | -0.31 / -0.38 / -0.35 / -0.50 / -0.61 / -0.37 | 0/18 |
| 9 | GFDLNEYGIS | VIYADGRRTAYADSVK | GNNAGTFDL | ND / ND / ND / ND / ND / ND | 0/18 |
| 10 | GFDLDEYGIS | VIYADGMRTAYADSVK | GEVAGTFDT | -0.10 / -0.61 / -0.73 / -0.68 / -0.81 / -0.57 | 0/18 |
| 11 | GFDLNEYGIS | VIYADGQRTAYADKVK | GENAGTFDV | 0.09 / -0.33 / -0.40 / -0.46 / 0.10 / -0.64 | 0/18 |
| 12 | GFDLDEYGIS | VIYADGMRTVYADSVK | GNQAGTFDI | 0.03 / 0.13 / -0.17 / -0.27 / -0.08 / -0.12 | 0/18 |
| 13 | GFDLDEYGIS | VIYADGKRTYYADSVK | GQNAGTFDV | -0.40 / -0.64 / -0.46 / -0.88 / -0.93 / -0.73 | 0/18 |
| 14 | GFDLDEYGIS | VIYADGMRTYYADSVK | GNNAGTFDI | 0.44 / 0.73 / -0.10 / 1.28 / 0.49 / 0.05 | 0/18 |
| 15 | GFDLNEYGIS | VIYADGQRTYYADSVK | GENAGTFDM | -0.24 / -0.16 / 0.49 / -0.86 / 0.71 / 0.37 | 0/18 |
| 16 | GFDLNEYGIS | VIYADGSRTAYADDVK | GNVAGTFDL | -0.60 / -0.68 / -0.56 / -0.66 / -1.14 / -0.21 | 0/18 |
| 17 | GFDLNEYGIS | VIYADGKRTAYADSVK | GENAGTFDI | -0.89 / -1.24 / -0.84 / -1.00 / -1.13 / -0.69 | 0/18 |
| 18 | GFDLNEYGIS | VIYADGMRTVYADSVK | GGNAGTFDV | -0.42 / -0.84 / -1.04 / -0.98 / -0.30 / -0.42 | 0/18 |
| 19 | GFDLNEYGIS | VIYADGKRTAYADSVK | GNVAGTFDT | -0.17 / -0.04 / 0.01 / 0.10 / 0.03 / 0.04 | 0/18 |
| 20 | GFDLDEYGIS | VIYADGKRTAYADDVK | GNQAGTFDV | ND / ND / ND / ND / ND / ND | 0/18 |
| 21 | GFDLNEYGIS | VIYADGMRTAYSDSVK | GGVAGTFDL | -0.98 / -0.91 / -0.65 / -1.31 / -0.75 / -0.92 | 0/18 |
| 22 | GFDLNEYGIS | VIYADGVRTAYSDSVK | GNTAGTFDM | -0.23 / -0.64 / -0.62 / -0.64 / -0.65 / -0.32 | 2/18 (2.13) |
| 23 | GFDLNEYGIS | VIYADGLRTAYTDSVK | GENAGTFDV | 1.46 / 0.20 / 1.11 / 0.55 / 0.27 / 0.26 | 0/18 |
| 24 | GFDLNEYGIS | VIYADGVRTAYVDDVK | GNVAGTFDL | -0.34 / -0.34 / -0.24 / -0.37 / -0.60 / -0.42 | 0/18 |
| 25 | GFDLNEYGIS | VIYADGLRTAYADNVK | GNVAGTFDV | -0.79 / -0.94 / -0.81 / -1.09 / -0.53 / -0.44 | 0/18 |
| 26 | GFDLDEYGIS | VIYADGMRTAYIDSVK | GNQAGTFDL | -0.31 / -0.12 / -0.23 / -0.54 / -0.32 / 0.03 | 0/18 |
| 27 | GFDLNEYGIS | VIYADGMRTAYADSVK | GNVGGTFDV | 0.28 / 0.44 / 0.47 / 0.10 / 0.03 / 1.13 | 1/18 (1.25) |
| 28 | GFDLDEYGIS | VIYADGMRTAYSDSVK | GANAGTFDI | -0.22 / 0.45 / -0.35 / -0.06 / -0.23 / -0.23 | 0/18 |
| 29 | GFDLDEYGIS | VIYADGKRTAYADDVK | GENAGTFDT | 0.76 / 0.96 / 1.79 / 0.16 / 0.44 / 0.65 | 1/18 (1.62) |
| 30 | GFDLNEYGIS | VIYADGKRTAYADSVK | GGNAGTFDV | -0.26 / 0.12 / -0.29 / -0.08 / -0.14 / 0.01 | 0/18 |
| 31 | GFDLNEYGIS | VIYADGQRTAYADNVK | GETAGTFDL | -0.50 / -0.40 / -0.33 / -1.02 / 0.49 / -0.23 | 0/18 |
| 32 | GFDLNEYGIS | VIYADGMRTYYADDVK | GNVAGTFDL | 0.72 / -0.58 / -0.61 / -0.50 / -0.46 / -0.15 | 0/18 |
| 33 | GFDLNEYGIS | VIYADGMRTAYADNVK | GQNAGTFDL | -0.15 / -0.73 / -0.58 / -0.72 / -0.64 / -0.05 | 0/18 |
| 34 | GFDLNEYGIS | VIYADGMRQAYADSVK | GQNAGTFDV | -1.10 / -1.20 / -0.48 / -0.72 / -1.22 / -1.07 | 0/18 |
| 35 | GFDLNEYGIS | VIYADGMRTFYSDSVK | GENAGTFDL | 0.89 / 0.74 / 0.65 / 0.42 / 0.94 / 0.43 | 0/18 |
| 36 | GFDLNEYGIS | VIYADGMRTAYSDNVK | GNVAGTFDQ | 0.30 / 0.26 / 0.25 / 0.05 / -0.31 / 0.45 | 1/18 (1.79) |
| 37 | GFDLNEYGIS | VIYADGMRTAYADDVK | GEVAGTFDT | -0.83 / -0.66 / -0.58 / -0.77 / -0.79 / -0.34 | 0/18 |
| 38 | GFDLNEYGIS | VIYADGQRTAYADNVK | GNVAGTFDI | -0.06 / 0.11 / -0.60 / -0.93 / -0.96 / -0.34 | 0/18 |
| 39 | GFDLNEYGIS | VIYADGVRTSYADSVK | GQNAGTFDI | -0.83 / -1.40 / -1.26 / -1.32 / -0.21 / -0.47 | 0/18 |
| 40 | GFDLNEYGIS | VIYADGMRTSYVDSVK | GNNAGTFDV | -0.30 / -0.37 / -0.55 / -0.28 / -0.27 / -0.12 | 0/18 |
| 41 | GFDLNEYGIS | VIYADGQRTAYADSVK | GTNAGTFDQ | -0.18 / -0.20 / 0.13 / 0.02 / -0.43 / 0.18 | 1/18 (1.89) |

The opening 2 entries, copied out:

| CDR-H1 | CDR-H2 | CDR-H3 | replicates, log10 nM | control signals |
|---|---|---|---|---|
| GFDLNEYGIS | VIYADGMRTFYADSVK | GETAGTFDT | -0.23 / -0.80 / -0.58 / -0.97 / -0.94 / -0.64 | 0/18 |
| GFDLNEYGIS | VIYADGVRQAYADSVK | GNVAGTFDV | -0.28 / -0.37 / -0.27 / -0.72 / -0.56 / -0.20 | 0/18 |